Experimental data as given in patent EP2261258A1, “MCSP-aligned scFv antibody fragments and use of same” (Schuler, Gerold, priority 2009, dated 2010).

What was measured:
[1] = biological target: Melanom-assoziiertes Chondroitinsulfat Proteoglykan (MCSP) (human) (UniProt Q6UVK1); assay: flow cytometry with MCSP-GFP on primary melanoma cells of patient 9
[2] = biological target: Melanom-assoziiertes Chondroitinsulfat Proteoglykan (MCSP) (human) (UniProt Q6UVK1); assay: flow cytometry with MCSP-GFP on primary melanoma cells of patient 3
[3] = biological target: Melanom-assoziiertes Chondroitinsulfat Proteoglykan (MCSP) (human) (UniProt Q6UVK1); assay: flow cytometry with MCSP-GFP on primary melanoma cells of patient 2
[4] = biological target: Melanom-assoziiertes Chondroitinsulfat Proteoglykan (MCSP) (human) (UniProt Q6UVK1); assay: flow cytometry with MCSP-GFP on primary melanoma cells of patient 6
[5] = biological target: Melanom-assoziiertes Chondroitinsulfat Proteoglykan (MCSP) (human) (UniProt Q6UVK1); assay: flow cytometry with MCSP-GFP on primary melanoma cells of patient 1
[6] = biological target: Melanom-assoziiertes Chondroitinsulfat Proteoglykan (MCSP) (human) (UniProt Q6UVK1); assay: flow cytometry with MCSP-GFP on primary melanoma cells of patient 10
[7] = biological target: Melanom-assoziiertes Chondroitinsulfat Proteoglykan (MCSP) (human) (UniProt Q6UVK1); assay: flow cytometry with MCSP-GFP on primary melanoma cells of patient 8
[8] = biological target: Melanom-assoziiertes Chondroitinsulfat Proteoglykan (MCSP) (human) (UniProt Q6UVK1); assay: flow cytometry with MCSP-GFP on primary melanoma cells of patient 4
[9] = biological target: Melanom-assoziiertes Chondroitinsulfat Proteoglykan (MCSP) (human) (UniProt Q6UVK1); assay: flow cytometry with MCSP-GFP on primary melanoma cells of patient 5
[10] = biological target: Melanom-assoziiertes Chondroitinsulfat Proteoglykan (MCSP) (human) (UniProt Q6UVK1); assay: flow cytometry with MCSP-GFP on primary melanoma cells of patient 7

Q: Which ΔMFI (Mittlere Fluoreszenzaktivität über dem Hintergrund) [1] does the source give for “Fusionsprotein MCSP-GFP (from UniProt P42212 1-238)” here?
A: 11

Q: What about the ΔMFI (Mittlere Fluoreszenzaktivität über dem Hintergrund) [2] of the same substance?
A: 182

Q: And the ΔMFI (Mittlere Fluoreszenzaktivität über dem Hintergrund) [3]?
A: 320

Q: What about the ΔMFI (Mittlere Fluoreszenzaktivität über dem Hintergrund) [4] of the same substance?
A: 425

Q: What about the ΔMFI (Mittlere Fluoreszenzaktivität über dem Hintergrund) [5] of the same substance?
A: 84

Q: And the ΔMFI (Mittlere Fluoreszenzaktivität über dem Hintergrund) [6]?
A: 507

Q: And the ΔMFI (Mittlere Fluoreszenzaktivität über dem Hintergrund) [7]?
A: 627

Q: What about the ΔMFI (Mittlere Fluoreszenzaktivität über dem Hintergrund) [8] of the same substance?
A: 329

Q: And the ΔMFI (Mittlere Fluoreszenzaktivität über dem Hintergrund) [9]?
A: 475

Q: What about the ΔMFI (Mittlere Fluoreszenzaktivität über dem Hintergrund) [10] of the same substance?
A: 504
